An excerpt weighted towards active compounds, which were near 1.3% of everything screened.
S100A4 inh HTS – blocks human S100A4 binding to myosin IIA peptide | P26447 | inhibition, % at 10.7 µM | 0.14% of 360,000 active | S100A4/TAMRA-MyoIIA peptide fluorescence polarization;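 active means mean inhibition of at least 70% across replicates, with every replicate also reaching that level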
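Material: S100A4 monomer protein | Medium: HEPES pH 7.2 with CaCl2, KCl, NaCl, DTT, Triton | Reagent: Labelled myosin peptide probe, 5 nM | Doses: One dose per compound | Times: 5 min incubation before reading | Benchmarks: Neutral control DMSO, positive control TFP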
ARNT-TACC3 inh – disruptors of human ARNT/TACC3 interaction. Q9Y6A5. AlphaScreen His-ARNT PAS-B/GST-TACC3 binding, luminescence; TACC3 fragment carries E629A point mutation. inhibition, % at 9.99 µM. 0.66% of 390,000 active. AID 623870;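 active means mean inhibition of replicates at least 50% and at least half of replicates each reaching 50%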
E-sel inducer – induces E-selectin expression in human endothelial cells. P16581. HUVEC E-selectin immunofluorescence imaging; normalized: neutral wells 0, TNF-alpha wells 100. activation, % at 7.58 µM. 0.37% of 260,000 active. AID 686992;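 active means mean E-selectin-positive cell signal at least 10% of the positive control, reached in at least 60% of replicates, without over 20% cell loss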
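Material: HUVEC primary endothelial cells; Amount: 3,000 cells per well; Dosing: single concentration; Medium: EGM-2 growth medium on 0.1% gelatin-coated wells; Read-out basis: percent E-selectin-positive cells; Signal: immunofluorescence imaging; Control set: TNF-alpha, DMSO.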
MLL AF4-AF9 inh – MLL-AF4/AF9 protein interaction inhibition | AlphaScreen, biotin-AF4 peptide binding to FLAG-AF9 | inhibition, % at 10 µM | 0.47% of 350,000 active | P42568;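 active means every replicate reaching a set inhibition limit, whatever the replicate mean, cut at about 25% in these data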
Yeast UUG start-1 – yeast start codon fidelity modulation | S. cerevisiae UUG-firefly luciferase reporter, luminescence/redox ratio | activity score, % at 18.7 µM | 0.13% of 350,000 active | AID 602363;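 active means replicate mean at a twofold rise or more, about +100% in these data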;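 further: firefly luciferase made from a UUG start codon reports start codon fidelity; reporter light over untreated wells divided by growth signal over untreated wells; some hits fall short of that in this replicate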
ERAP1 inh – ERAP1 (human) enzyme inhibition | 0.15% of 340,000 active | recombinant ERAP1, Leu-AMC fluorescence, 60 min | Q9NZ08 | inhibition, % at 10.7 µM;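 active means mean replicate inhibition of at least 30%, or all replicates individually reaching that 30% level; inactive means mean below 30% and not every replicate reaching it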
Yeast UUG start-2 – modulators of start codon recognition fidelity in yeast; activation, % at 38 µM; shares compounds with Yeast UUG start-1; S. cerevisiae UUG-start firefly luciferase, luminescence, 4 h; 100% means double the DMSO signal; 540 tested, under 10 active;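 active means signal increase whose fitted curve reaches an absolute level of 40 at a concentration under 10 µM; inactive means activity opposite to the expected increase, or the rest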
ARNT Alpha ctr – interferes with AlphaScreen signal, flagging false ARNT-TACC3 hits; shares compounds with ARNT-TACC3 inh; His-ARNT PASB-GST AlphaScreen artifact counter-screen, luminescence; AC50, µM (titrated, usually from 68 µM); 50% of 1,200 active;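 active means every separate test run was called active for a drop in luminescence, with AC50 within twice the top valid dose, actives reach about 71 µM in these data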
Alpha interfer – AlphaScreen signal interference counter-screen hit; 45% of 530 active; AID 720494; signal luminescence; AC50, µM (series often up to 12 µM); shares compounds with MLL AF4-AF9 inh; cut-off not given, nearly all actives have AC50 up to about 14 µM
Hits are given with their value; i = inactive; nt = no result given.

SMILES | S100A4 inh HTS | ARNT-TACC3 inh | E-sel inducer | MLL AF4-AF9 inh | Yeast UUG start-1 | ERAP1 inh | others
O=C(N/N=C/c1c(O)n(-c2cccc3ccccc23)c(=O)[nH]c1=O)c1ccncc1 | i | 68.2 | i | i | i | i
Cc1ccc(-n2c(O)c(/C=N/NC(=O)c3ccncc3)c(=O)[nH]c2=O)cc1C | i | 62.5 | nt | i | nt | i
O=C(N/N=C/c1c(O)n(CCc2ccc(F)cc2)c(=O)[nH]c1=O)c1ccncc1 | i | 65.4 | i | i | nt | i
CCCN1[C@@H]2Cn3c(ccc(-c4ccccc4)c3=O)[C@H]1[C@@H](C(=O)OC)[C@@H]2CO | i | i | i | i | nt | i
O=C(N/N=C/c1c(O)n(Cc2ccccc2)c(=O)[nH]c1=O)c1ccccc1O | nt | 62.6 | i | nt | nt | nt
COc1ccc(Cn2c(O)c(/C=N/NC(=O)c3ccccc3)c(=O)[nH]c2=O)cc1 | i | i | nt | i | i | i
COc1ccc(Cn2c(O)c(/C=N/NC(=O)c3ccncc3)c(=O)[nH]c2=O)cc1 | i | 58.0 | i | i | i | i
CCn1c(O)c(/C=N/NC(=O)c2ccccc2)c(=O)[nH]c1=S | i | 63.1 | i | i | nt | i
Cc1ccnc(NC(=O)CCCc2ccc(N(CCCl)CCCl)cc2)n1 | i | i | i | 25.7 | i | i
COc1cccc(-c2ccc3n(c2=O)C[C@@H]2[C@@H](CO)[C@H](C(=O)O)[C@H]3N2Cc2ccccc2F)c1 | nt | nt | i | nt | nt | nt
COC(=O)[C@H]1[C@H](CO)[C@H]2Cn3c(ccc(-c4ccccc4F)c3=O)[C@@H]1N2CC1CCCC1 | i | i | i | i | nt | i
CCCNC(=O)[C@H]1[C@H](CO)[C@H]2Cn3c(cccc3=O)[C@@H]1N2CCC | nt | nt | i | i | nt | nt
O=C1NC(=O)N(c2cccc(Cl)c2)C(=O)/C1=C\c1ccc(Sc2nc3ccccc3[nH]2)o1 | i | nt | i | i | nt | i
O=C1NC(=O)N(c2ccccc2F)C(=O)/C1=C/c1ccc(Sc2nc3ccccc3[nH]2)o1 | 170.7 | nt | nt | i | i | i
CN1CCN(c2cn[nH]c(=O)c2Cl)CC1 | i | i | 45.8 | i | i | i
CN1CCN(c2ccc([N+](=O)[O-])cc2Cl)CC1 | i | i | i | i | nt | i
CCCNC(=O)[C@H]1[C@H](CO)[C@H]2Cn3c(cccc3=O)[C@H]2N1C | i | i | i | i | nt | i
COC(=O)[C@H]1[C@H](CO)[C@H]2Cn3c(ccc(-c4ccncc4)c3=O)[C@@H]1N2S(=O)(=O)c1ccccc1F | i | i | i | i | nt | i
CN1CC[C@]23c4c5ccc(O)c4OC2[C@H](O)C=CC3[C@H]1C5 (some centres not stated) | i | nt | nt | nt | i | i
COc1ccc2c3c1OC1C(O)C=CC4C(C2)[N+](C)(C)CCC341 (configuration not stated) | i | i | i | i | i | 57.7
COC(=O)[C@@H]1[C@@H](CO)[C@@H]2Cn3c(ccc(-c4ccncc4)c3=O)[C@H]1N2S(=O)(=O)c1ccccc1C | i | i | i | i | nt | i
O=C1C(Cl)=CC(=Nc2ccc(O)cc2)C=C1Cl | i | nt | nt | 36.3 | i | i
COC(=O)C[C@H]1CC[C@@H]2NC[C@@H](O)COC[C@H]2O1 | i | i | i | i | i | i
Cc1ccc(-c2nc3ccccc3c(=O)n2-c2cccc(O)c2)cc1 | i | i | 164.3 | i | nt | i
CC1OC(C[N+](C)(C)C)CC1O (configuration not stated) | i | i | i | i | i | i
SMILES | S100A4 inh HTS | ARNT-TACC3 inh | E-sel inducer | MLL AF4-AF9 inh | Yeast UUG start-1 | ERAP1 inh | others
C[C@H]1OC[C@@H](C[N+](C)(C)C)O1 | i | i | i | i | i | 103.6
CC1=NCCc2c1[nH]c1cc(O)ccc21 | i | i | i | i | i | 53.5
O=C(c1ccccc1)c1cn(CC(=O)N2CCOCC2)c2ccccc12 | nt | i | nt | nt | i | nt | Yeast UUG start-2=i
O=C(O)[C@@H]1[C@@H](CO)[C@@H]2Cn3c(ccc(-c4cccnc4)c3=O)[C@H]1N2S(=O)(=O)c1ccccc1F | i | i | i | i | nt | i
CC[n+]1c(/C=C/C=C/c2ccc(N(C)C)cc2)sc2ccccc21 | i | 48.4 | nt | 86.1 | 99.6 | i | Yeast UUG start-2=i;Alpha interfer=1.02µM
O=C(O)[C@@H]1[C@@H](CO)[C@@H]2Cn3c(ccc(C4=CCCCC4)c3=O)[C@H]1N2C(=O)Cc1ccccn1 | i | i | i | i | nt | i
CCCCn1c(N)c(C(=O)OCCOC)c2nc3ccccc3nc21 | i | nt | i | i | i | i
CCCCOCCCn1c(N)c(C(=O)OCCOC)c2nc3ccccc3nc21 | nt | 68.2 | nt | nt | i | nt | ARNT Alpha ctr=i
COCCCn1c(N)c(C(=O)NCCC(C)C)c2nc3ccccc3nc21 | nt | active | nt | nt | i | nt | ARNT Alpha ctr=i
CCCCn1c(NS(=O)(=O)c2ccc(C)cc2)c(C(=O)OCC)c2nc3ccccc3nc21 | i | i | i | i | i | i
CCCCn1c(NC(=O)c2ccco2)c(C(=O)OCC)c2nc3ccccc3nc21 | nt | 29.9 | nt | nt | i | nt | ARNT Alpha ctr=i
COC(=O)[C@@H]1[C@@H](CO)[C@@H]2Cn3c(ccc(C4=CCCC4)c3=O)[C@H]1N2S(=O)(=O)c1cn(C)cn1 | i | i | i | i | nt | i
O=C(Cc1cccnc1)N1CCCCN2[C@H](C1)[C@@H](c1ccc(/C=C/c3ccccc3)cc1)[C@@H]2CO | i | i | i | i | i | i
COc1ccc(Cc2c(O)[nH]c(=O)[nH]c2=O)c(OC)c1 | i | 14.9 | i | i | nt | i | ARNT Alpha ctr=i
COc1ccc(-c2cc(=NCCC(=O)O)c3cc(C)ccc3o2)cc1 | i | 30.2 | i | i | i | i | ARNT Alpha ctr=i
COC(=O)[C@@H]1[C@@H](CO)[C@@H]2Cn3c(ccc(C4=CCCC4)c3=O)[C@H]1N2Cc1ccccn1 | i | i | i | i | nt | i
CCOC(=O)c1cc2c(cn1)[C@@H](CCO)NC2 | i | 55.5 | i | i | i | i | ARNT Alpha ctr=i
CCN1[C@@H]2c3ccc(-c4cccc(OC)c4)c(=O)n3C[C@H]1[C@H](CO)[C@H]2C(=O)OC | i | i | i | i | nt | i
COc1cc2c(c(OC)c1OC)-c1ccc(O)c(=O)cc1[C@@H](N)CC2 | i | 57.8 | nt | 48.2 | i | i | ARNT Alpha ctr=i;Alpha interfer=7.58µM
O=C(Cc1ccccc1)N1CC2(C1)[C@H](c1ccccc1)[C@H](CO)N2Cc1cccc(F)c1 | i | nt | i | i | nt | i
CN(C)c1ccc(/C=C/c2cc[n+](C)c3ccccc23)cc1 | i | i | 109.5 | 41.0 | nt | i | Alpha interfer=2.9µM
C[n+]1c(-c2ccccc2)sc2ccccc21 | i | i | nt | i | i | i

Screens as filed in PubChem.
